Laboratory results taken from ChEMBL document CHEMBL4270627, “Synthesis and SAR of 4,5-dihydro-1H-pyrazolo[4,3-h]quinazoline derivatives as potent and selective CDK4/6 inhibitors” (Eur J Med Chem, 2018).

Tests used:
Homo sapiens [1] = species: Homo sapiens; experiment: Selectivity ratio of IC50 for CDK2/Cyclin A2 (unknown origin) to IC50 for CDK4/Cyclin D3 (unknown origin)
Homo sapiens [2] = species: Homo sapiens; experiment: Selectivity ratio of IC50 for CDK2/Cyclin A2 (unknown origin) to IC50 for CDK6/Cyclin D3 (unknown origin)

| Compound | Ratio IC50 (Homo sapiens [1]) | Ratio IC50 (Homo sapiens [2]) |
| --- | --- | --- |
| Cn1nc(C(N)=O)c2c1-c1nc(Nc3ccc(N4CCNCC4)cc3)ncc1CC2 | 1 | 0.8 |
| CNC(=O)c1nn(C)c2c1C(C)(C)Cc1cnc(Nc3ccccc3)nc1-2 | 0.56 | 0.03 |
| Cn1nc(C(N)=O)c2c1-c1nc(Nc3ccc(N4CCNCC4)cn3)ncc1CC2 | 28.3 | 23.6 |
| CN(C)c1ccc(Nc2ncc3c(n2)-c2c(c(C(N)=O)nn2C)CC3)nc1 | 2 | 2.5 |
| Cn1nc(C(N)=O)c2c1-c1nc(Nc3ccc(N4CCOCC4)cn3)ncc1CC2 | 33.3 | 25.2 |

Now from value to compound:

| Ratio IC50 (Homo sapiens [1]) | Ratio IC50 (Homo sapiens [2]) | Compound |
| --- | --- | --- |
| 0.33 | 0.1 | CN1CCN(c2ccc(Nc3ncc4c(n3)-c3c(c(C(N)=O)nn3C)CC4)cc2)CC1 |
| 70 | 28.1 | CN1CCN(c2ccc(Nc3ncc4c(n3)-c3c(c(C(N)=O)nn3C)CC4)nc2)CC1 |
